One experiment concerns guinea pig ileum (GPI). As to the kind of experiment: Guinea pig ileum (GPI) bioassay: inhibition of electrically evoked contractions. In kind it is cell-based. The note with it: for IC50: read-out: GPI IC50, normalized with [Leu5]enkephalin standard, effect primarily μ-mediated, tested form: TFA. The procedure: (§1) Bioassays based on inhibition of electrically evoked contractions of the mouse vas deferens (MVD) and of the guinea pig ileum (GPI) were performed. In the GPI assay the opioid effect is primarily mediated by μ opioid receptors, whereas in the MVD assay the inhibition of the contractions is mostly due to interaction with δ opioid receptors.
(§2) The GPI and MVD bioassays were carried out as reported in P. W. Schiller et al., Biochem. Biophys. Res. Commun. 85, 1332-1338 (1978) and J. DiMaio et al., J. Med. Chem. 25, 1432-1438 (1982). A log-dose response curve was determined with [Leu^5 ]enkephalin as standard for each ileum and vas preparation, and IC50 values of the compounds being tested were normalized according to A. A. Waterfield et al., Eur. J. Pharmacol. 58, 11-18 (1979).

Sequences of proteins named here, by UniProt entry; tags and fusion partners are left off.
UniProt P33535, whole entry: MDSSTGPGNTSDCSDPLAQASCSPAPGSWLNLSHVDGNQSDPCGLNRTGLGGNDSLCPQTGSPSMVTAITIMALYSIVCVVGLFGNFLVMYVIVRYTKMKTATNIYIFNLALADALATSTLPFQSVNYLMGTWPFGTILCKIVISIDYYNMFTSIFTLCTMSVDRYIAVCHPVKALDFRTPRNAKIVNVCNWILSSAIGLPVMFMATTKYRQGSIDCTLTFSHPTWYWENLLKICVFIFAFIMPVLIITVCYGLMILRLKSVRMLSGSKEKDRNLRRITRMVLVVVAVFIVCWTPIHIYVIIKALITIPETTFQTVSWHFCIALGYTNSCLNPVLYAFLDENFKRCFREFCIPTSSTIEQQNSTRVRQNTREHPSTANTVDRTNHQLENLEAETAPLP

Another experiment concerns mouse vas deferens (MVD). Briefly: Mouse vas deferens (MVD) bioassay: inhibition of electrically evoked contractions. The note with it: tested form: TFA; for GPI/MVD IC50 ratio: ratio of GPI IC50 to MVD IC50; for IC50: read-out: MVD IC50. In kind it is cell-based. The procedure: as §1, §2
The target in a further experiment is μ opioid receptor (Rattus norvegicus, UniProt P33535). As to the kind of experiment: μ opioid receptor binding assay, displacement of [3H]DAMGO from rat brain membranes. The note with it: read-out: Ki^μ, [3H]DAMGO 0.7 nM, Cheng-Prusoff, tested form: TFA. As for the experimental part:
(§3) μ and δ opioid receptor binding constants (Ki^μ,Ki^δ) of the compounds were determrined by displacement of relatively selective μ and δ radioligands from binding sites in rat brain membrane preparations calculated from the measured IC50 values on the basis of the equation by Cheng and Prusoff, (Y. C. Cheng and W. H. Prusoff Biochem. Pharmnacol. 22, 3099-3102 (1973)).
(§4) The μ-, δ- and κ-opioid receptor affinities of all new analogs were determined in binding assays based on displacement of μ-, δ- and κ-selective radioligands from rat brain membrane binding sites. In the case of κ-ligands guinea pig brain homogenates were used, since the relative proportion of κ-binding sites is higher in guinea pig brain than in rat brain. The experimental procedure being used in our laboratory represents a modified version of the binding assay described by Pasternak et al. (Mol. Pharnacol. 11, 340-351 (1975)). Male Sprague-Dawley rats (300-350 g) from the Canadian Breeding Laboratories were decapitated and after removal of the cerebellum the brains were homogenized in 30 volumes of ice-cold standard buffer (50 mnM Tris HCl , pH 7.7). After centrifugation at 30,000×g for 30 min at 4° C. the membranes were reconstituted in the original volume of standard buffer and incubated for 30 min at 37° C. (to release bound endogenous ligands). Subsequent centrifugation and resuspension of the pellet in the initial volume of fresh standard buffer yielded the final membrane suspension. Aliquots (2 ml) of the membrane preparations were incubated for 1-2 h at 25° C. with 1 ml standard buffer containing the peptide to be tested and one of the following radioligands at the final concentration indicated: [^3 H]DAMGO, μ-selective, 0.7 nM; [^3 H]DSLET, μ-selective, 1.0 nM; and [^3 H]U69,563, κ-selective, 0.5 nM. The incubation was terminated by filtration through Whatman GF/B filters under vacuum at 4° C. Following two washings with 5 ml portions of ice-cold standard buffer the filters were transferred to scintillation vials and treated with 1 ml Protosol (New England Nuclear) for 30 min prior to addition of 0.5 ml acetic acid and 10 ml Aquasol (New England Nuclear). After shaking for 30 min the vials were counted at an efficiency of 40-45%. All experiments were performed in duplicate and repeated at least three times. Specific binding of each of the three radioligands was defined by performing incubations in the presence of cold DAMGO, DSLET and U69,563, respectively, at a concentration of 1 micromolar. Values of half-maximal inhibition (IC50) of specific binding were obtained graphically from semilogarithmic plots. From the measured IC50-values, binding inhibition constants (Ki) were calculated based on Cheng and Prusoff's equation (Biochem. Pharmacol. 22, 3099-3102 (1973)). Ratios of the Ki -values determined in the μ-, δ- and κ-representative binding assays are a measure of the receptor selectivity of the compound under investigation (e.g. Ki^μ /Ki^μ indicates the selectivity for δ-receptors versus μ-receptors).
In general terms: Loss of bound radioactivity is the signal in a displacement assay; it reports binding, not function.

The next experiment concerns the target δ opioid receptor (Rattus norvegicus, UniProt P33533). Briefly: δ opioid receptor binding assay, displacement of [3H]DSLET from rat brain membranes. As to conditions: tested form: TFA; for Ki: read-out: Ki^δ, rat brain membranes, [3H]DSLET 1.0 nM, Cheng-Prusoff; for Ki^μ/Ki^δ: δ versus μ receptor selectivity. As for the experimental part:
as §3
as §4, with “[…];” for “[^3 H]DSLET, μ-selective, 1.0 nM;”

The mark [1] stands for this setting: inhibition of electrically evoked contractions, normalized with [Leu5]enkephalin standard, effect mostly δ-mediated.

As usually defined, the IC50 is the point on the concentration scale where inhibition reaches its midpoint. What is called Ki is a measure of affinity in units of concentration, obtained from inhibition or displacement. Regarding `Cc1cc(O)cc(C)c1C[C@H](N)C(=O)N1Cc2ccccc2C[C@H]1C(=O)NCCc1ccccc1`, the values for the IC50 in the experiment with guinea pig ileum (GPI) and with mouse vas deferens (MVD) (setting [1]) were 48 nM and 2.3 nM, respectively. Further, in the experiment on mouse vas deferens (MVD) (conclusion from MVD and GPI assays), the “δ opioid agonist character (full / partial)” value is given as “partial δ agonists”. Moreover, the “MVD IC50” value with mouse vas deferens (MVD) (setting [1]) is “partial agonist”. Besides, the “GPI/MVD IC50 ratio” value with mouse vas deferens (MVD) is listed as 20.9. Besides, the Ki on μ opioid receptor was 1.59 nM; on δ opioid receptor, 0.0577 nM. At δ opioid receptor, the “Ki^μ/Ki^δ” value was found to be 27.6.
For `C[C@H](CNC(=O)[C@@H]1Cc2ccccc2CN1C(=O)[C@@H](N)Cc1ccc(O)cc1)c1ccccc1`, the IC50 is 3790 nM with guinea pig ileum (GPI) and 21.4 nM with mouse vas deferens (MVD) (setting [1]). Also, the “GPI/MVD IC50 ratio” value with mouse vas deferens (MVD) came out at 177. In addition, the values for the Ki at μ opioid receptor and at δ opioid receptor were 82.3 nM and 6.31 nM, respectively. Further, the “Ki^μ/Ki^δ” value on δ opioid receptor was determined as 13.0.
With `Cc1cc(O)cc(C)c1C[C@H](N)C(=O)N1Cc2ccccc2C[C@H]1C(=O)NCC(c1ccccc1)c1ccccc1`, the IC50 with guinea pig ileum (GPI) was determined as 290 nM; in the experiment with mouse vas deferens (MVD) (setting [1]), 0.726 nM. Further, the “GPI/MVD IC50 ratio” value in the experiment on mouse vas deferens (MVD) amounted to 399. Besides, the Ki was 1.62 nM at μ opioid receptor and 0.693 nM at δ opioid receptor. On δ opioid receptor, the “Ki^μ/Ki^δ” value came to 2.34.
On to `Cc1cc(O)cc(C)c1C[C@@H](N)C(=O)N1Cc2ccccc2C[C@H]1C(=O)NCC(c1ccccc1)c1ccccc1`, for which the figures for the IC50 in the experiment on guinea pig ileum (GPI) and with mouse vas deferens (MVD) (setting [1]) were 91.1 nM and 3.01 nM, respectively. The “GPI/MVD IC50 ratio” value in the experiment with mouse vas deferens (MVD) is recorded as 30.3. Moreover, the values for the Ki at μ opioid receptor and at δ opioid receptor were 4.08 nM and 1.75 nM, respectively. Besides, at δ opioid receptor, the “Ki^μ/Ki^δ” value amounted to 2.33.
Take `Cc1cc(O)cc(C)c1C[C@@H](N)C(=O)N1Cc2ccccc2C[C@H]1C(=O)NCCc1ccccc1`: the figures for the IC50 with guinea pig ileum (GPI) and in the experiment with mouse vas deferens (MVD) (setting [1]) were 290 nM and 10.4 nM, respectively. Further, the “GPI/MVD IC50 ratio” value in the experiment with mouse vas deferens (MVD) is 27.9. Moreover, the Ki on μ opioid receptor was 8.2 nM; on δ opioid receptor, 4.51 nM. For the same compound, the “Ki^μ/Ki^δ” value at δ opioid receptor is 1.82.
`N[C@@H](Cc1ccc(O)cc1)C(=O)N1Cc2ccccc2C[C@H]1C(=O)NCCc1ccccc1F`: the IC50 is 5450 nM with guinea pig ileum (GPI) and 75.5 nM in the experiment on mouse vas deferens (MVD) (setting [1]). The “GPI/MVD IC50 ratio” value in the experiment on mouse vas deferens (MVD) came out at 72.2. Also, the Ki was 255 nM on μ opioid receptor and 7.71 nM on δ opioid receptor. At δ opioid receptor, the “Ki^μ/Ki^δ” value stood at 33.1.
On to `CN[C@@H](Cc1ccc(O)cc1)C(=O)N1Cc2ccccc2C[C@H]1C(=O)NCC(c1ccccc1)c1ccccc1`, for which the concentration for half-maximal inhibition (IC50) in the experiment on guinea pig ileum (GPI) came to 156 nM; in the experiment on mouse vas deferens (MVD) (setting [1]) it was 0.261 nM. Besides, the “GPI/MVD IC50 ratio” value with mouse vas deferens (MVD) is on record as 598. Moreover, the Ki was determined as 12.7 nM at μ opioid receptor and 0.581 nM at δ opioid receptor. Moreover, the “Ki^μ/Ki^δ” value at δ opioid receptor is given as 21.9.
For the compound `CC(CNC(=O)[C@@H]1Cc2ccccc2CN1C(=O)[C@@H](N)Cc1ccc(O)cc1)(c1ccccc1)c1ccccc1`, the IC50 with guinea pig ileum (GPI) was found to be 2830 nM; in the experiment with mouse vas deferens (MVD) (setting [1]), 93.4 nM. The “GPI/MVD IC50 ratio” value with mouse vas deferens (MVD) is 30.3. The Ki came out at 22.9 nM on μ opioid receptor and 20 nM on δ opioid receptor. Also, at δ opioid receptor, the “Ki^μ/Ki^δ” value is 1.15.
`N[C@@H](Cc1ccc(O)cc1)C(=O)N1Cc2ccccc2C[C@H]1C(=O)NCCc1ccccc1Cl`: the “GPI IC50” value in the experiment with guinea pig ileum (GPI) (normalized with [Leu5]enkephalin standard, effect primarily μ-mediated, tested form: TFA) is “partial agonist”. In addition, the IC50 in the experiment on mouse vas deferens (MVD) (setting [1]) was 8.77 nM. On μ opioid receptor, the Ki was found to be 96.9 nM. In addition, on δ opioid receptor, the Ki was determined as 1.43 nM and the “Ki^μ/Ki^δ” value came to 67.8.
Take `C[C@@H](CNC(=O)[C@@H]1Cc2ccccc2CN1C(=O)[C@@H](N)Cc1ccc(O)cc1)c1ccccc1`: the IC50 with guinea pig ileum (GPI) stood at 3430 nM; in the experiment with mouse vas deferens (MVD) (setting [1]), 26 nM. For the same compound, in the experiment with mouse vas deferens (MVD), the “GPI/MVD IC50 ratio” value is 132. The Ki at μ opioid receptor was determined as 51.3 nM; on δ opioid receptor, 3.67 nM. At δ opioid receptor, the “Ki^μ/Ki^δ” value is reported as 14.0.
